Only a part is listed here, and it is no random draw. Active and inactive are the calls of the source. Rule for the calls: active = max response of -50% or lower; inconclusive = between -30% and -50%; inactive = -30% or higher.
% is set by controls: 0 for no effect and ±100 for the full control effect.

Protein sequences, listed by entry. Tags and fused reporters are not part of them.
UniProt P48426, whole entry: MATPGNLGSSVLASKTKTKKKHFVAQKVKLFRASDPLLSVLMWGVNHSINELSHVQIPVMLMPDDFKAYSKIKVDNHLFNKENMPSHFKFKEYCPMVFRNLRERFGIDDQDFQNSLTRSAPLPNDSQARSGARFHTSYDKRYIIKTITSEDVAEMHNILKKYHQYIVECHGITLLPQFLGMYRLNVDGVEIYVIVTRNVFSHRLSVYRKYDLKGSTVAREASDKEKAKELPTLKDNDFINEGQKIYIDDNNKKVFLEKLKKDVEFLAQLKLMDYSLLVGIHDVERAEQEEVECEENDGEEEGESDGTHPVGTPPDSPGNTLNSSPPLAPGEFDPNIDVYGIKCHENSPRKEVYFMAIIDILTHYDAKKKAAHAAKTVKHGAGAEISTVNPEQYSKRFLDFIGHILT

This experiment concerns the target Phosphatidylinositol 5-phosphate 4-kinase type-2 alpha (Homo sapiens) (UniProt P48426). Nature of the experiment: qHTS for Inhibitors of phosphatidylinositol 5-phosphate 4-kinase (PI5P4K). Note: value at the top dose of about 77 µM. Particulars: PI5P4Kalpha enzyme, ADP-Glo luminescence, 60 min; hits give low values. An excerpt: In addition to finding PI5P, we discovered the type II phosphatidylinositol 5-phosphate 4-kinase (PI5P4K) family (alpha, beta, gamma isoforms) that catalyze the conversion of PI5P to PI(4,5)P2. Alternatively, PI(4,5)P2 can also be synthesized through phosphatidylinositol-4-phosphate (PI4P) by the type I phosphatidylinositol 4-phosphate 5-kinases (PI4P5K). These PI5P4K enzymes therefore represent one way by which cells can regulate endogenous PI5P levels and play important roles in insulin signaling and in stress responses.
This proposal aims to identify and optimize specific modulators of human PI5P4K, phosphatidylinositol-5-phosphate 4-kinase (Type II PIPK), a family of kinases that regulate AKT signaling and tumor cell growth. In this project we aim to identify inhibitors of human PI5P4K using a quantitative high-throughput screening approach against the MLSMR containing ~400,000 small molecules.
NIH Chemical Genomics Center [NCGC] […]
2 microL of PI5P4Kalpha/substrate buffer (columns 1-2, 5-48) are dispensed into Greiner white solid bottom 1536-well assay plates; column 3 receives only PI5P4Kalpha buffer as 0x substrate controls; column 4 receives only substrate buffer as 0x PI5P4Kalpha controls. […] They are then transferred to a ViewLux high-throughput CCD imager (PerkinElmer) wherein single end-point measurements of luminescence are acquired using a clear filter.
(In general: Quantitative high-throughput screening tests each substance at several concentrations.)
`CCC(=O)N(c1ccccc1)C1(COC)CCN(CCn2nnn(CC)c2=O)CC1`: the max response is inactive: 5.82%.
For `CCC(=O)N(c1ccccc1)C1(COC)CCN(CCc2cccs2)CC1` the value was inactive: -3.05%.

Source of the values: PubChem BioAssay AID652105 (National Center for Advancing Translational Sciences (NCATS), 2013).
